Sequences of proteins named here, by UniProt entry; tags and fusion partners are left off.
UniProt Q96RI1, whole entry: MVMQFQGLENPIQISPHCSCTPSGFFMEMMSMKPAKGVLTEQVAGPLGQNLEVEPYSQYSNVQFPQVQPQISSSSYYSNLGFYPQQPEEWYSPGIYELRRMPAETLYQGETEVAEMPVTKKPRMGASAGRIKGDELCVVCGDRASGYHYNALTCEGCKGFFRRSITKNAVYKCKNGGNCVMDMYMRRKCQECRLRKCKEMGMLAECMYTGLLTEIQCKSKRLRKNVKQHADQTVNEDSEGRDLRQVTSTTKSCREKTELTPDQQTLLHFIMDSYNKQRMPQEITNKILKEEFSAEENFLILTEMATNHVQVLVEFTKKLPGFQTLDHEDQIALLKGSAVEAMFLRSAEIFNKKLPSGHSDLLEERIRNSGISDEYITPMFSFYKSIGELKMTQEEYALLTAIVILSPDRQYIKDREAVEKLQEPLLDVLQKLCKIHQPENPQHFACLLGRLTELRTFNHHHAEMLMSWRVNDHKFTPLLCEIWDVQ

According to patent publication US10144729B2, “Isoxazole analogs as FXR agonists and methods of use thereof” (Enanta Pharmaceuticals, Inc., priority 2016, dated 2018):

Biological target: human FXR (NR1H4) (Homo sapiens (Human), UniProt Q96RI1)
Experiment: Human FXR (NR1H4) Assay (Gal4 promoter driven luciferase reporter, CHO cells)
Assay type: cell-based

EC50 (FXR reporter assay in CHO cells expressing human NR1H4, 22 hours incubation, potency ranges): 100 to 1000 nM | Efficacy (%) (FXR reporter assay in CHO cells, efficacy normalized to CDCA set as 100%): 279%
SMILES: O=C(NS(=O)(=O)N1CCCCC1)c1ccc([C@@H]2C[C@H]2c2ccc(OCc3c(-c4c(Cl)cccc4Cl)noc3C3CC3)cc2Cl)cc1 (relative stereo)
